Tested on: AF64A-treated rats
Settings: rat, in vivo

CC(=O)NCCc1c[nH]c2ccc(O)cc12 [NAS, N-acetylserotonin]
rank among the studied compounds in the active avoidance test: weakest

— patent US6353015B1, “Method of treating neurodegenerative disorders” (St. Elizabeth's Medical Center, priority 1998, dated 2002)
